Screening results deposited in PubChem BioAssay by several laboratories.
MC4R barr agon – activates human MC4R beta-arrestin recruitment; P32245; U2OS MC4R beta-arrestin complementation, luminescence; percent of melanotan II response, DMSO zero; activation, % at 8.9 µM; 360,000 tested, 0.98% active; AID 540308;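 active = activation above a per-plate cutoff, the mean activation of sample wells on that plate plus 3 SD, cut at about 8% in these data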
NRP1-CendR mod – modulators of CendR peptide binding to human neuropilin-1. O14786. FAM-RPARPAR peptide binding to NRP-1, fluorescence polarization. inhibition, % at 25 µM. 360,000 tested, 0.85% active. AID 602438;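 active = inhibition or corrected inhibition above about 18%, plus a signal ratio from 0.5 to 1.5, limit read from the data, passing the limit was not always enough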
Yeast UUG start – modulators of start codon recognition fidelity in yeast; AID 602363; activity score, % at 18.7 µM; S. cerevisiae UUG-firefly luciferase reporter, luminescence/redox ratio; actives 0.13% (n = 350,000);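 active = replicate mean at a twofold rise or more, about +100% in these data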;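 note: firefly luciferase made from a UUG start codon reports start codon fidelity; reporter light over untreated wells divided by growth signal over untreated wells; some hits fall short of that in this replicate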
ASAP1 GAP inh – blocks human ASAP1-stimulated Arf1 GTP hydrolysis | Q9ULH1 | GDP FP detection | inhibition, % at 16.5 µM | 360,000 tested, 0.19% active | AID 624377; in the data active = inhibition above about 25%;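 also: 0% = vehicle with enzyme and substrate and 100% = no enzyme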
MC4R antag cAMP – human MC4R antagonism in cAMP assay; P32245; inhibition, % at 6.5 µM; AID 540295; MC4R-expressing cells, MTII-stimulated cAMP, LANCE TR-FRET; 360,000 tested, 0.48% active;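 active = inhibition above its plate's cutoff, the mean of tested wells on that plate plus 3 SD, cut at about 29% in these data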;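 also: 0% = Melanotan II alone and 100% = Melanotan II plus saturating MCL0020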
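Assay system: human MC4R-expressing U2OS cells; reagent: Melanotan II stimulation of cells; dosing: 6.5 µM single dose; timing: compound 30 min, challenge 1 h, detection 1 h; signal: TR-FRET cAMP assay; replicates: one well per compound, no replicates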
ARFGAP1 inhibitor – inhibitors of rat ARFGAP1; AID 651572; Q62848; Arfgap1-stimulated ARF1 GTP hydrolysis, GDP FP detection; inhibition, % at 16.5 µM; 360,000 tested, 0.26% active;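 active = inhibition above a per-plate limit, mean inhibition of low control wells plus 3 SD, cut at about 25% in these data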;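 also: 0% = DMSO wells with enzyme and 100% = wells lacking Arfgap1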
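Assay system: purified rat His6-Arfgap1 residues 1-136 (GAP domain); Reagent: human Δ17 ARF1 bound to GTP; Dosing: 16.5 µM single point, 1.26% DMSO; Times: GTP hydrolysis reaction 2 h at 25 °C; Signal: FP, GDP Alexa 633 tracer displaced from anti-GDP antibody, 620/688 nm; Measure: % inhibition from polarization.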
cAMP nonselect – nonselective cAMP signaling inhibitor, MC4R antagonist counter-screen. 1,600 tested, 26% active. inhibition, % at 6.5 µM. AID 602193. shares compounds with MC4R antag cAMP. parental U2OS, forskolin cAMP, LANCE TR-FRET;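 active = mean inhibition over triplicates above the low-control well mean plus 3 SD, set per campaign, cut at about 13% in these data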;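 also: signal is single emission at 671 nm which falls as cellular cAMP rises; 0% = forskolin-stimulated wells and 100% = buffer without forskolin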
MC4R antag conf – human MC4R cAMP antagonism confirmation; shares compounds with MC4R antag cAMP; MC4R-expressing cells, MTII-stimulated cAMP, TR-FRET; inhibition, % at 6.5 µM; 1,600 tested, 27% active; AID 602195; in the data active = inhibition above about 29%;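 also: 0% = agonist stimulated wells alone and 100% = agonist stimulated wells plus saturating reference antagonist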
The depositor's hits bear a star; / = no result given. The list is not random: actives were taken first. Their share in the collection is about 2.3%.

(1) CC1=Nc2ccc(C)cc2/C1=C/c1c(N)n2c(S(=O)(=O)C(C)C)nsc2nc1=O
(2) COC(=O)[C@H]1[C@H](CO)[C@H]2Cn3c(ccc(C4=CCCCC4)c3=O)[C@H]2N1C(=O)C1CC1
(3) O=C(CN1C(=O)c2cccc([N+](=O)[O-])c2C1=O)N1CCN(c2ccc(F)cc2)CC1
(4) Cc1cccc(-n2c(O)c(C=Nc3ccccc3O)c3ccccc3c2=O)n1
(5) Cc1cccc(-n2c(O)c(C=Nc3cc(O)ccc3C)c3ccccc3c2=O)n1
(6) CC(C)(C)OC(=O)NCCCCCNC(=O)c1[nH]cnc1C(=O)Nc1cc(Br)ccc1F

| assay / entry | 1 | 2 | 3 | 4 | 5 | 6 |
| --- | --- | --- | --- | --- | --- | --- |
| MC4R barr agon | -0.4 | / | -0.7 | -1.2 | 0.6 | 1.9 |
| NRP1-CendR mod | -13.1 | / | 1.3 | -35.0 | -10.1 | -1.5 |
| Yeast UUG start | / | 12.5 | / | -3.1 | -7.5 | -8.1 |
| ASAP1 GAP inh | 4.9 | / | -2.0 | 4.3 | -1.4 | 8.3 |
| MC4R antag cAMP | 33.0* | / | 34.4* | -3.3 | 31.2* | 32.5* |
| ARFGAP1 inhibitor | 9.7 | / | 3.6 | 13.3 | -1.5 | -5.3 |
| cAMP nonselect | 3.1 | / | 26.7* | / | 2.0 | 4.0 |
| MC4R antag conf | 6.0 | / | 43.4* | / | -0.5 | 3.2 |

Reprinted from the part before: 4 entries, followed by the next part.
(3) O=C(CN1C(=O)c2cccc([N+](=O)[O-])c2C1=O)N1CCN(c2ccc(F)cc2)CC1
(4) Cc1cccc(-n2c(O)c(C=Nc3ccccc3O)c3ccccc3c2=O)n1
(5) Cc1cccc(-n2c(O)c(C=Nc3cc(O)ccc3C)c3ccccc3c2=O)n1
(6) CC(C)(C)OC(=O)NCCCCCNC(=O)c1[nH]cnc1C(=O)Nc1cc(Br)ccc1F
(7) CC(C)(C)OC(=O)NCc1ccc(NC(=O)c2nc[nH]c2C(=O)Nc2cc(Br)ccc2F)cc1
(8) CC(C)(C)OC(=O)NCc1ccc(NC(=O)c2nc[nH]c2C(=O)NCCCNC(=O)c2[nH]cnc2C(=O)Nc2ccc(CNC(=O)OC(C)(C)C)cc2)cc1
(9) C[C@H](CO)N1C[C@H](C)[C@@H](CN(C)C(=O)C2CCC2)Oc2cc(-c3cncnc3)ccc2S1(=O)=O
(10) Cc1ccc(NC(=O)C2=C(c3ccccc3)S(=O)(=O)CCS2(=O)=O)cc1
(11) CC(=O)OC1OCCOC1NC(=S)Nc1ccc(C)cc1 (stereo unspecified)
(12) O=C(CCl)c1ccc2c(c1)CCN2C(=O)C1CCCCC1

| assay / entry | 3 | 4 | 5 | 6 | 7 | 8 | 9 | 10 | 11 | 12 |
| --- | --- | --- | --- | --- | --- | --- | --- | --- | --- | --- |
| MC4R barr agon | -0.7 | -1.2 | 0.6 | 1.9 | / | 8.7* | / | -0.5 | -0.7 | -2.7 |
| NRP1-CendR mod | 1.3 | -35.0 | -10.1 | -1.5 | 6.0 | -4.1 | / | 0.8 | -7.9 | 0.9 |
| Yeast UUG start | / | -3.1 | -7.5 | -8.1 | -13.8 | -8.3 | 3.3 | / | -21.2 | / |
| ASAP1 GAP inh | -2.0 | 4.3 | -1.4 | 8.3 | -5.5 | / | / | -1.6 | 7.9 | 0.6 |
| MC4R antag cAMP | 34.4* | -3.3 | 31.2* | 32.5* | / | 31.1* | / | 61.1* | 32.0* | 30.2* |
| ARFGAP1 inhibitor | 3.6 | 13.3 | -1.5 | -5.3 | -15.2 | / | / | 1.8 | 1.1 | 2.9 |
| cAMP nonselect | 26.7* | / | 2.0 | 4.0 | / | 2.8 | / | 49.5* | 1.1 | 4.1 |
| MC4R antag conf | 43.4* | / | -0.5 | 3.2 | / | 7.9 | / | 44.3* | -8.1 | 23.4 |

(13) CCC1CCCCN1S(=O)(=O)c1ccc2c(c1)CCN2C(=O)C1CCC1 (stereo unspecified)
(14) COc1ccccc1NC(=O)NC1CCS(=O)(=O)C1 (stereo unspecified)
(15) Cc1ccccc1NC(=O)NC1CCS(=O)(=O)C1 (stereo unspecified)
(16) COc1ccc(-n2nnnc2S(=O)(=O)CC(=O)N2CCCCC2)cc1
(17) COc1ccc(-n2nnnc2S(=O)(=O)Cc2ccc(C(=O)O)cc2)cc1
(18) CC(=O)c1ccc(S(=O)(=O)N2CCN(C(=O)CSc3ccc(C)c(C)c3)CC2)cc1

| assay / entry | 13 | 14 | 15 | 16 | 17 | 18 |
| --- | --- | --- | --- | --- | --- | --- |
| MC4R barr agon | -0.3 | -1.2 | 1.0 | -1.2 | -1.4 | 0.3 |
| NRP1-CendR mod | -0.9 | 1.4 | -1.4 | 8.9 | 12.8 | -4.2 |
| Yeast UUG start | -4.6 | -11.6 | -18.3 | -1.7 | -22.3 | -6.5 |
| ASAP1 GAP inh | -6.5 | 2.2 | -15.8 | 4.8 | 1.2 | -19.2 |
| MC4R antag cAMP | 1.1 | 33.7* | -2.7 | 38.5* | 8.9 | 34.5* |
| ARFGAP1 inhibitor | -1.1 | 5.8 | 1.6 | -2.7 | -1.1 | -4.8 |
| cAMP nonselect | / | 1.7 | / | 5.7 | / | -3.1 |
| MC4R antag conf | / | 5.5 | / | 50.8* | / | 1.0 |

(19) O=C(C[C@@H]1CC[C@@H](NS(=O)(=O)c2ccccc2)[C@@H](CO)O1)NCc1ccccc1F
(20) CC(=O)c1ccc(-n2c(CCC(=O)O)ccc2-c2ccccc2)cc1
(21) CC(=O)c1ccc(-n2c(CCC(=O)O)ccc2-c2ccc(C)cc2)cc1
(22) CO[C@H]1CN(C)C(=O)c2ccc(NS(=O)(=O)c3cn(C)cn3)cc2OC[C@@H](C)N(CCC(F)(F)F)C[C@H]1C
(23) CCN(CC)S(=O)(=O)c1ccc(OC)c(NC(=O)COc2ccc3c(C)cc(=O)oc3c2)c1
(24) CC(=O)N(C)C[C@H]1[C@H](c2ccc(-c3ccccc3)cc2)[C@@H](CO)N1C(=O)C1CC1

| assay / entry | 19 | 20 | 21 | 22 | 23 | 24 |
| --- | --- | --- | --- | --- | --- | --- |
| MC4R barr agon | / | -2.2 | -0.8 | / | -1.2 | / |
| NRP1-CendR mod | / | -1.4 | 0.1 | / | -2.2 | / |
| Yeast UUG start | 4.7 | 2.9 | -13.6 | -4.8 | 1.2 | -5.3 |
| ASAP1 GAP inh | / | -3.1 | / | / | -5.5 | / |
| MC4R antag cAMP | / | 19.8 | 30.2* | / | 113.6* | / |
| ARFGAP1 inhibitor | / | -1.9 | / | / | 18.4 | / |
| cAMP nonselect | / | / | 1.3 | / | 95.8* | / |
| MC4R antag conf | / | / | 15.5 | / | 168.1* | / |

(25) COc1ccc(C(=O)N/N=C\C(C)=C\c2ccccc2)cc1OC
(26) COc1cc(C(=O)NCC(=O)N/N=C\C(C)=C/c2ccccc2)cc(OC)c1OC
(27) CCN=C1SC(CC(=O)NC(C)C)C(=O)N1CC (stereo unspecified)
(28) CCN=C1SC(CC(N)=O)C(=O)N1CC (stereo unspecified)
(29) O=C(CN(c1cccc([N+](=O)[O-])c1)S(=O)(=O)c1ccccc1)NCc1cccnc1
(30) O=C(CN(c1cccc(C(F)(F)F)c1)S(=O)(=O)c1ccc(Cl)c([N+](=O)[O-])c1)NCc1ccc(F)cc1

| assay / entry | 25 | 26 | 27 | 28 | 29 | 30 |
| --- | --- | --- | --- | --- | --- | --- |
| MC4R barr agon | -1.7 | -0.3 | 0.7 | 1.9 | -1.7 | 0.7 |
| NRP1-CendR mod | -2.0 | 5.8 | -6.7 | 0.0 | 9.2 | -5.3 |
| Yeast UUG start | 7.4 | 2.4 | -11.2 | / | -11.6 | -10.4 |
| ASAP1 GAP inh | 16.5 | -6.6 | -2.0 | 0.6 | -6.2 | -5.5 |
| MC4R antag cAMP | -2.3 | 30.5* | 6.3 | 32.4* | 0.1 | 29.0* |
| ARFGAP1 inhibitor | 2.3 | 8.5 | 0.3 | 3.7 | 8.8 | 3.8 |
| cAMP nonselect | / | -1.3 | / | 3.9 | / | 18.2* |
| MC4R antag conf | / | -4.3 | / | 3.8 | / | 57.1* |

(31) COc1ccccc1C(=O)Nc1ccc2c(c1)C(=O)N(C)C[C@H](OC)[C@H](C)CN(C(C)=O)[C@@H](C)CO2
(32) CCCCNC(=O)CN1C(=O)CSc2ccc(S(=O)(=O)N3CCOCC3)cc21
(33) CC(=O)OCC1OC(n2cc(F)c(=O)[nH]c2=O)C(OC(C)=O)C1OC(C)=O (stereo unspecified)
(34) O=C1C(F)=CC(COC(c2ccccc2)(c2ccccc2)c2ccccc2)OC1n1cc(F)c(=O)[nH]c1=O (stereo unspecified)
(35) O=S(=O)(Nc1cc(Sc2ncn[nH]2)c(O)c2ccccc12)c1ccccc1
(36) C[C@H]1CN([C@@H](C)CO)C(=O)c2cccc(NC(=O)Nc3ccc(F)cc3)c2O[C@H]1CN(C)Cc1ccc(Oc2ccccc2)cc1
(37) COc1ccc(C(=O)/C=C/C(=O)N(CC(=O)NC2CCCCC2)Cc2cccs2)c(O)c1
(38) COCCN(CC(=O)NC1CCCCC1)C(=O)/C=C/C(=O)c1ccc(OC)cc1O

| assay / entry | 31 | 32 | 33 | 34 | 35 | 36 | 37 | 38 |
| --- | --- | --- | --- | --- | --- | --- | --- | --- |
| MC4R barr agon | / | -0.3 | -0.5 | -5.0 | -1.8 | / | -5.8 | -5.6 |
| NRP1-CendR mod | / | -8.2 | -11.1 | -10.4 | 17.8 | / | 13.9 | 18.9 |
| Yeast UUG start | -0.8 | -0.3 | -7.9 | / | / | 4.8 | / | / |
| ASAP1 GAP inh | / | -13.2 | -5.2 | -1.8 | 24.8* | / | 0.8 | -15.8 |
| MC4R antag cAMP | / | 55.0* | 13.8 | 29.5* | 52.8* | / | 31.8* | 41.1* |
| ARFGAP1 inhibitor | / | -2.3 | 6.9 | -18.3 | 5.3 | / | 6.2 | 14.8 |
| cAMP nonselect | / | -1.8 | / | -2.2 | 10.5 | / | 9.9 | 1.7 |
| MC4R antag conf | / | -14.6 | / | -13.8 | 7.9 | / | 22.9 | 5.2 |
